Laboratory results from article PMC12677844, “Profiling Inhibitor Scaffolds for the Cancer Target Jumonji‐C Domain‐Containing Protein 6” (Chemmedchem, 2025).

Biological target: T1, full‐length His6‐JMJD6 (Homo sapiens, UniProt Q6NYC1)
T1 construct: Isolated recombinant full‐length human JMJD6 with a N‐terminal His6‐tag; made in house; host or cells: Escherichia coli BL21 (DE3)
Test: JMJD6 SPE–MS inhibition assay (BRD4_511–550 hydroxylation)
Type: biochemical
Settings: His6‐JMJD6 0.05 µM, 2OG 100 µM, FAS 2 µM, BRD4_511–550 1 µM, L‐ascorbic acid 100 µM; means of two independent runs (mean ± SD)
Procedure: Co‐substrate concentrations were chosen based on reported SPE–MS kinetic parameters for the JMJD6‐catalyzed BRD4_511–550 monohydroxylation reaction.^[ [56] ^] […] Since JMJD6 has a relatively high 2OG Kmapp , the JMJD6 SPE–MS inhibition assay employs a 2OG concentration which is relatively high compared to most other 2OG oxygenase SPE–MS assays, possibly more accurately reflecting cellular 2OG concentrations.^[ [59] ^, [60] ^] Likely saturating concentrations of LAA (100 µM) and FAS (2 µM) were used.
JMJD6 catalyzes oxidation of BRD4_511–550 to give multiple hydroxylation products,^[ [56] ^] an observation potentially complicating data analysis.
Isolated recombinant full‐length human JMJD6 with a N‐terminal His6‐tag was produced in Escherichia coli BL21 (DE3) cells and purified as reported.^[ [1] ^, [56] ^] […] Purified His6‐JMJD6 was stored at −78 °C; fresh aliquots were used for all JMJD6 assays.
DMSO and 2,4‐PDCA (final assay concentration: 500 µM) were used as negative and positive inhibition controls, respectively. Each reaction was performed in technical duplicates in adjacent wells of the assay plates. […]
The plates were centrifuged (1000 rpm, 5 s) and incubated for 15 min at ambient temperature. […] The plates were then centrifuged (1000 rpm, 30 s) and analyzed by MS. […]

Compound `O=C(O)CC(C(=O)O)C(O)C(=O)O` (stereo not shown) [Isocitrate] has an IC50 of over 50 µM.
